From patent US4528290A, “Stimulating dopamine D-1 receptors” (Eli Lilly and Company, priority 1984, dated 1985)

Chains of the proteins cited; added tags and fusions are not shown.
UniProt P18901, whole entry: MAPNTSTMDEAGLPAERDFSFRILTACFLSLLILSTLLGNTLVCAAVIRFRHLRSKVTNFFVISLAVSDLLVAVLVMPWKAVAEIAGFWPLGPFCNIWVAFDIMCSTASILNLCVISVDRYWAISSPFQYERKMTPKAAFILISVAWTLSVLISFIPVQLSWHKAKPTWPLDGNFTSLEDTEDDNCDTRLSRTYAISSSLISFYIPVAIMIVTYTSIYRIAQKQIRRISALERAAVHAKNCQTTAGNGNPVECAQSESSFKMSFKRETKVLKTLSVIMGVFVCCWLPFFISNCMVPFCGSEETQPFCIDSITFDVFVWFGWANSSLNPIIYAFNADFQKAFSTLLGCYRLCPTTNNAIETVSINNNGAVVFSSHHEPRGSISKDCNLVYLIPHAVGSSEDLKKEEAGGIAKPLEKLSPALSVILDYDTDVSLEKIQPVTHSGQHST

Columns and labels:
[1] = system: dopamine D-2 receptors
[2] = biological target: dopamine D-1 receptors (adenylate cyclase in rat striatal membrane) (Rattus norvegicus, UniProt P18901); conditions: Table 1, p<0.025
[3] = system: dopamine D-1 receptors (cyclic AMP efflux, striatal tissue); assay: tissue or blood
Description: A second, particularly sensitive indicator of D-1 agonist activity is the determination of the cyclic AMP efflux in tissue slices using a procedure based on Stoof and Kebabian (loc. cit). In this procedure, striatal tissue is dissected from rat brains and chopped into 0.3 mm.×[…]. fragments. The tissue fragments are suspended in the appropriate buffer system (Earl's balanced salt solution, for example) and the suspension is continuously aerated with 95:5 O2 /CO2 while being maintained at 37° C. Just prior to use, the tissue fragments are transferred to fresh media to which is added bovine serum albumin (2.5 mg./ml.) and 3-isobutyl-1-methylxanthine (1 millimolar) to block degradation of cyclic AMP. The tissue fragments are incubated in buffer without drugs and are then transferred to the same media with added drug. Aliquots of incubation media, with and without drugs, are assayed for cyclic AMP concentration by a specific radioimmunoassay. The effect of the drug or drugs on efflux is expressed as a percentage of the resting efflux. The following medium was employed:
Sulpiride is known to be an antagonist on pituitary D-2 receptors. Addition of sulpiride to a test system, such as that described above, blocks any D-2 effect of a drug in reducing cyclic AMP production.

[4] = A 5 × 10^-7 M plus sulpiride at 10^-6 M
[5] = Rattus norvegicus, read-out: % Increase in Cyclic AMP

CCCN1CCC[C@H]2Cc3[nH]ncc3C[C@@H]21 [4aS, 8aS enantiomer, 4aS,8aS-5-n-propyl-4,4a,5,6,7,8,8a,9-octahydro-1H(and 2H)-pyrazolo[3,4-g]quinoline] was tested, and the D-2 agonist activity [1] was “without D-2 agonist activity” and the “significance of increase in cyclic AMP formation (D-1 agonist activity)” value [2] was “significantly increased cyclic AMP formation”.

In the case of CCCN1CCC[C@H]2Cc3[nH]ncc3C[C@@H]21 [A, 4aS,8aS-5-n-propyl-4,4a,5,6,7,8,8a,9-octahydro-1H(and 2H)-pyrazolo[3,4-g]quinoline dihydrochloride], the “Cyclic AMP Concentration” value ([3]; 5 × 10^-6 M, rat striatal tissue fragments) is reported as 160.1 ± 23.8, the “Cyclic AMP Concentration” value ([3]; 5 × 10^-7 M, rat striatal tissue fragments) is reported as 131.0 ± 9.2 and the “% Increase in Cyclic AMP” value [3, 4] is reported as 100%. For the same molecule, the “Cyclic AMP Concentration” value [3, 4] was 143.7 ± 6.2, the activation at 0.5 µM [3, 5] was 83% and the activation at 5 µM [3, 5] was 124%.

Counter-ions that a name gives are not always drawn.
